Values quoted from earlier work, collected in patent US7576088B2, “Benzodioxole derivatives” (Hoffman-La Roche Inc., priority 2002, dated 2009).

Amino acid sequences for entries named in this document (tags omitted).
UniProt P47746, whole entry: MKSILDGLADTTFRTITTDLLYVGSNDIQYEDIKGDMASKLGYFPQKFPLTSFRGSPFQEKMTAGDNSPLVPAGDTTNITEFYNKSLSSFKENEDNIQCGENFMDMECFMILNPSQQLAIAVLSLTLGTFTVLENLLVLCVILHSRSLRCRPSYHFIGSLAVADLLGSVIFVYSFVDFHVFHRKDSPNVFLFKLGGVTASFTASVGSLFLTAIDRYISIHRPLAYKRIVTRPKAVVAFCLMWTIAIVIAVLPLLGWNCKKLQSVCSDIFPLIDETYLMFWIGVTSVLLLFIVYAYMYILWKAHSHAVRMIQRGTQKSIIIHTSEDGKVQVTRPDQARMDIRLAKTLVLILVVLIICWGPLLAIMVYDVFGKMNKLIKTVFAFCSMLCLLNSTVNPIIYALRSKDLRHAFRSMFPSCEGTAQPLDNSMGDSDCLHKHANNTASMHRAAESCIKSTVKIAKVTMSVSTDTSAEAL

Molecular target: CB1 receptor (Mus musculus, UniProt P47746)
Conditions: wild-type versus CB1 receptor knockout mice; cited from earlier work

Compound: Cc1c(C(=O)NN2CCCCC2)nn(-c2ccc(Cl)cc2Cl)c1-c1ccc(Cl)cc1 [SR141716A]
- food intake: reduces food intake in wild-type but not knockout mice
